Measurements from patent publication US20070087346A1, “Orthogonal gene switches” (priority 2003, published 2007).

By UniProt entry, the sequences of proteins in these tests, tags left out. Where a name states a change or a piece, a line headed by the entry shows the natural chain unless it says otherwise. Chains listed by the source or under a name are the forms on record and can include a tag or linker. Residues count along the entry.
UniProt P03372, whole entry: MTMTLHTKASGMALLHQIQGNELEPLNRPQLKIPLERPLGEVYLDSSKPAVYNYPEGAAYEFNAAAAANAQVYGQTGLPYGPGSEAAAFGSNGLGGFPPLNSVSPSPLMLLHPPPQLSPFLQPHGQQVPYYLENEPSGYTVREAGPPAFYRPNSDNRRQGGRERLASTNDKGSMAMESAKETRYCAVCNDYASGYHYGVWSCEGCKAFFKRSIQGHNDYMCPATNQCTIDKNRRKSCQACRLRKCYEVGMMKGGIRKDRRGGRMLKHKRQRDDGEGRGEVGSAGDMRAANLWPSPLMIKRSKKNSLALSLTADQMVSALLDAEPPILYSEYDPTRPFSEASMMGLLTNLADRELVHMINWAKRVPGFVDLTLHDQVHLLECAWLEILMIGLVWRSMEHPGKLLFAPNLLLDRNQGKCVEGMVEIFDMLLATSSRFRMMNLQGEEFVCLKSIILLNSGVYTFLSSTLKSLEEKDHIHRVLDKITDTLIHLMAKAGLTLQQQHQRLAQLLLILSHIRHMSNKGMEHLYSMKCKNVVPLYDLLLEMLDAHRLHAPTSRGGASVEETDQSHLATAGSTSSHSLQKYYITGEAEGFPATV
UniProt P03372, 303-595 limits assumed: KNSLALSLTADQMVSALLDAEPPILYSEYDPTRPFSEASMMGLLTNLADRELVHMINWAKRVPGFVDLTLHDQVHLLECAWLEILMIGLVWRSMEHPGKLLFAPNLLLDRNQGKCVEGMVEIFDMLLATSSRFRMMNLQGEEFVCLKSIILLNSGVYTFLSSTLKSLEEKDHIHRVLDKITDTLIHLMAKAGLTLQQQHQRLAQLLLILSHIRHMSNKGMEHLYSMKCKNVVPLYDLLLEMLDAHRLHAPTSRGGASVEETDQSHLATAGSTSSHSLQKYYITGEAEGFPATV
UniProt P03372, 303-595 with tags or gaps G521R/L384M/M421G: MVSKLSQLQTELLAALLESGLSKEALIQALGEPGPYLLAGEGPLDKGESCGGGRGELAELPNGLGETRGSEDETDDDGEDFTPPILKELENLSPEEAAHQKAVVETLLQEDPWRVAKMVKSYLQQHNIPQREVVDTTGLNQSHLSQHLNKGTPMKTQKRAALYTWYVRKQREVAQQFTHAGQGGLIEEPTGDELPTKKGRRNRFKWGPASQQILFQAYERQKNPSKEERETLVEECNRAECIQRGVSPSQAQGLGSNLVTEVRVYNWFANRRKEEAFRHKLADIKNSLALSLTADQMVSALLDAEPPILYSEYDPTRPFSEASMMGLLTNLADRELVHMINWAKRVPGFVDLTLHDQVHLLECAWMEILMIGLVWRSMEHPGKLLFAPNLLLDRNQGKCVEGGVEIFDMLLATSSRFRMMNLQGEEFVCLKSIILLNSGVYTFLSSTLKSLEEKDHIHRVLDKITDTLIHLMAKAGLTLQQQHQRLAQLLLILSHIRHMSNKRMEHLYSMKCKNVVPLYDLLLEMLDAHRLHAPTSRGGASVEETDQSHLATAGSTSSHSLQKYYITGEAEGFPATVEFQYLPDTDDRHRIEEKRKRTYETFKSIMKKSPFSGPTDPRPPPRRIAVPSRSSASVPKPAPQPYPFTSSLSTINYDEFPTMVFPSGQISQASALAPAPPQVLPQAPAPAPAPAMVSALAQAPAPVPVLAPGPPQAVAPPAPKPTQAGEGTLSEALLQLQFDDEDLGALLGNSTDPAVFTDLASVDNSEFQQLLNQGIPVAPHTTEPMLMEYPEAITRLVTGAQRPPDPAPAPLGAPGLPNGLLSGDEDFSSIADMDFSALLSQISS

Columns and labels:
[1] = molecular target: hERα (Homo sapiens, UniProt P03372); test: binding to full-length hERα; conditions: read-out: hERα IC50; full-length receptor; tested form: trifluoroacetate
[2] = molecular target: GST-ERα wt-LBD (Homo sapiens, UniProt P03372); test: competitive radiometric 3[H]E2 displacement binding assay, wt LBD; conditions: read-out: GST-ERα wt-LBD IC50, tested form: trifluoroacetate
[3] = molecular target: HEA-2 (L(384)M/M(421)G/G(521)R ER-LBD mutant in the context of HEA-1) (Homo sapiens, UniProt P03372, G521R/L384M/M421G); test: SEAP reporter co-transfection in HeLa cells, HEA-2; assay type: cell-based; conditions: tested form: trifluoroacetate

IC50 [1]: 0.622 µM
IC50 [2]: 1.13 µM
EC50 [3]: 0.3 µM
Structure (SMILES): O=C1CCC2(Cc3ccccc3)Cc3c(ccc4[nH]ncc34)C2=C1c1ccc(OCCN2CCCCC2)cc1 (stereo not drawn) [CMP9, 9a-benzyl-6-{4-[2-(1-pipe-ridinyl)eth-oxy]phenyl}-8,9,9a,10-tetra-hydroindeno[2,1-e]in-dazol-7(3H)-one hydrotrifluoroacetae salt]

Where a name gives a salt, the structure may show the parent alone.
